Tested on: rats
Settings: oral, single dose

COc1cc(CN2CCN(C(=O)c3cc4ccccc4o3)CC2)cc(OC)c1OC.Cl [Working Example 7, 1-(2-benzofuranylcarbonyl)4-(3,4,5-trimethoxybenzyl)piperazine hydrochloride]
LD50 (estimated): ~1000 mg/kg

Reference: patent publication US4937246A, “PAF antagonist, 1,4-disubstituted piperazine compounds and production thereof” (priority 1987, dated 1990)
